The results in this text go back to patent US9555057B2, “Compositions and methods for reducing cutaneous microbiome malodor” (The Research Foundation for The State University of New York, priority 2014, dated 2017).

The nature of the data set: pH and solubility of solutions, suspensions and formulae. Type of data set: physicochemical.

Turning to basic zinc carbonate (ZnCO3. 3 Zn(OH)2), under “36 mM (zinc acetate and zinc carbonate also 72 mM)”, the “pH of stock solution in de-ionized water” value is reported as 8.2. In addition, the “pH of the test composition” value (concentration 1%) is 1% (pH 7.2), the “pH of the test composition” value (concentration 3%) is on record as 3% (pH 7.5) and the “pH of the test composition” value (concentration 5%) is 5% (pH 7.5).
